Only a part is listed here, and it is no random draw. Active and inactive are the calls of the source.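 How the source made its calls: active means primary screen inhibition at 20 µM above a set limit (cut at about 50% in these data); inactive means the rest.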
System: diaphorase (Clostridium kluyveri)
Assay: diaphorase inhibitors and chemical oxidizers, primary screen, counter-screen for diaphorase-coupled primary assays, biochemical, uHTS, resorufin fluorescence (AID 1217);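 further: plate controls were DMSO with full reaction for no effect and wells lacking NADH for full effect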
Conditions: diaphorase resazurin-to-resorufin fluorescence, NADH, 16 min; at 20 µM; active compounds read high; bacterial (C. kluyveri) enzyme, not human

Which inhibition does the source give for O=[N+]([O-])c1ncn(CCn2ncnc2[N+](=O)[O-])n1 here?
Its inhibition is inactive: 4.7%.

For COc1ccc(C2=NCC(CBr)S2)cc1 (centres undefined), which inhibition is on record?
Its inhibition is inactive: -24.4%.

Which inhibition does the source give for O=[N+]([O-])c1cccc2n[nH]nc12 here?
The inhibition was inactive: 4.3%.

For CC(=O)N1C2C3N(C(C)=O)C1C1N(C(C)=O)C(C(N1C(C)=O)N3C(C)=O)N2C(C)=O, which inhibition is on record?
The inhibition was inactive: 7.6%.

How did the inhibition turn out when Cc1ccc(NP(=O)(Oc2ccccc2)Oc2ccccc2)nc1 was run?
The inhibition was inactive: 13.5%.

How did the inhibition turn out when CCc1nc2c(n1)c1c(non1O)c1c2no[n+]1[O-] was run?
Its inhibition is active: 68%.

For O=[N+]([O-])c1cc([N+](=O)[O-])c(CCNc2ccccc2)c([N+](=O)[O-])c1, which inhibition is on record?
Its inhibition is inactive: 21.8%.

CCN(/C(=N/P(=O)(N1CCOCC1)N1CCOCC1)N1CCOCC1)c1ccc(OC)cc1 was tested. Which inhibition did it give?
The inhibition was inactive: 1.9%.

For CC(C)=N/N=C(\N)N[N+](=O)[O-], which inhibition is on record?
Its inhibition is inactive: -16.6%.

Which inhibition does the source give for CN(C)C(=O)OCCc1n(C)cc[n+]1C here?
The inhibition was inactive: -0.5%.

CC1CCN(C(=O)Oc2c(Cl)cc(Cl)c3cccnc23)CC1 was tested. Which inhibition did it give?
The inhibition was inactive: 4.9%.

NC(=O)c1cc([N+](=O)[O-])cc([N+](=O)[O-])c1N was tested. Which inhibition did it give?
Its inhibition is inactive: -13.1%.

How did the inhibition turn out when Cc1ccc(N/C(=N/P(=O)(N2CCOCC2)N2CCOCC2)N2CCOCC2)cc1 was run?
The inhibition was inactive: 3.1%.

COc1ccccc1OP(=O)(Nc1ccc(C)cn1)Oc1ccccc1OC was tested. Which inhibition did it give?
The inhibition was inactive: 13%.

Clc1ccc(Cl)c(NC2=NCC(CBr)S2)c1 (centres undefined) was tested. Which inhibition did it give?
The inhibition was inactive: -5.4%.

How did the inhibition turn out when CN1CCCC(OC(=O)C(c2ccccc2)c2ccccc2)C1 (centres undefined) was run?
Its inhibition is inactive: 1.2%.

CC(C)CC(=O)NC(Sc1ccc(Cl)cc1)C(Cl)(Cl)Cl (centres undefined) was tested. Which inhibition did it give?
Its inhibition is inactive: 2.2%.

With Oc1ccccc1CNc1ccccn1 as the compound, how does the inhibition read?
The inhibition was inactive: 2.5%.

Cc1c2non([O-])c-2c(C)[n+](=O)[n+]1[O-] was tested. Which inhibition did it give?
Its inhibition is active: 51%.

With O=C(NC(Sc1ccncn1)C(Cl)(Cl)Cl)c1ccccc1 (centres undefined) as the compound, how does the inhibition read?
The inhibition was inactive: 26.3%.

For CCOP(=O)(Nc1ccccc1)OCC, which inhibition is on record?
Its inhibition is inactive: 5.6%.

Cc1cc(SC(NC(=O)c2ccc(F)cc2)C(Cl)(Cl)Cl)ncn1 (centres undefined) was tested. Which inhibition did it give?
The inhibition was inactive: 27.5%.

Which inhibition does the source give for CCN(N=Nc1nonc1N)c1nonc1N here?
The inhibition was inactive: 15.9%.

How did the inhibition turn out when CCNC(=S)/N=C(\N)N[N+](=O)[O-] was run?
Its inhibition is inactive: 9.2%.

O=C(NC1CCS(=O)(=O)C1)NP(=S)(Oc1ccccc1)Oc1ccccc1 (centres undefined) was tested. Which inhibition did it give?
The inhibition was inactive: 16%.

With c1ccc(-c2nn[nH]n2)c(-c2nn[nH]n2)c1 as the compound, how does the inhibition read?
The inhibition was inactive: -16.3%.

For CCOC(=O)NC(Sc1ccccc1)C(Cl)(Cl)Cl (centres undefined), which inhibition is on record?
The inhibition was inactive: 9.5%.

Which inhibition does the source give for COC(=O)c1cc2c(s1)N=C(c1ccccc1)N(C)P2(=O)N1CCOCC1 (centres undefined) here?
Its inhibition is inactive: 7.9%.

For Cc1ccc(OP(=O)(Nc2ccccn2)Oc2ccc(C)cc2)cc1, which inhibition is on record?
Its inhibition is inactive: 6.1%.

How did the inhibition turn out when CC(=O)NC(SC(=S)N(CC(C)C)CC(C)C)C(Cl)(Cl)Cl (centres undefined) was run?
The inhibition was inactive: 9.9%.

CCC(=O)N1C2C3N(C(=O)CC)C1C1N(C(=O)CC)C(C(N1C(=O)CC)N3C(=O)CC)N2C(=O)CC was tested. Which inhibition did it give?
Its inhibition is inactive: 11.5%.

How did the inhibition turn out when O=c1c2cc([N+](=O)[O-])ccc2[nH]c2c([N+](=O)[O-])cc([N+](=O)[O-])cc12 was run?
The inhibition was inactive: 25.4%.

For O=P1(Nc2nc3ccc(Cl)cc3s2)COc2ccccc2O1 (centres undefined), which inhibition is on record?
The inhibition was inactive: 9.8%.

CCOc1ccc(C2=NCC(CBr)S2)cc1 (centres undefined) was tested. Which inhibition did it give?
The inhibition was inactive: -11.5%.

Which inhibition does the source give for CC(C)(C)C(=O)NC(Sc1ccccc1)C(Cl)(Cl)Cl (centres undefined) here?
The inhibition was inactive: 10.9%.

How did the inhibition turn out when CC(=O)Nc1ccc(Oc2c([N+](=O)[O-])cc([N+](=O)[O-])cc2[N+](=O)[O-])cc1 was run?
Its inhibition is inactive: 0%.

With CC(C)C(=O)NC(Sc1ccccc1)C(Cl)(Cl)Cl (centres undefined) as the compound, how does the inhibition read?
The inhibition was inactive: 10.2%.

O=P(Nc1nccs1)(c1ccccc1)c1ccccc1 was tested. Which inhibition did it give?
Its inhibition is inactive: -0.8%.

c1nnnn1CCn1cnnn1 was tested. Which inhibition did it give?
The inhibition was inactive: 12.4%.

With O=P(Nc1ccccn1)(c1ccc(Br)cc1)c1ccc(Br)cc1 as the compound, how does the inhibition read?
Its inhibition is inactive: 2.5%.

With CC(=O)NC(SC(=S)N(C)C)C(Cl)(Cl)Cl (centres undefined) as the compound, how does the inhibition read?
Its inhibition is inactive: 7.2%.

How did the inhibition turn out when C(Cc1nn[nH]n1)Cc1nn[nH]n1 was run?
Its inhibition is inactive: -0.9%.

For O=C(OC1CN2CCC1CC2)c1cccc(Cl)c1 (centres undefined), which inhibition is on record?
The inhibition was inactive: 3.2%.

Which inhibition does the source give for Cc1nn(-c2ccccc2)c2c1P(=O)(N1CCOCC1)N(C)C(c1ccccc1)=N2 (centres undefined) here?
Its inhibition is inactive: 15.7%.

For CC1CCC(C(C)C)C(OP(=O)(Nc2ccccn2)c2ccccc2)C1 (centres undefined), which inhibition is on record?
The inhibition was inactive: 0.9%.

For CN(C)C1(CNC(=O)c2ccc(S(C)(=O)=O)cc2)CCCCC1, which inhibition is on record?
Its inhibition is inactive: 8.9%.

O=P1(Nc2ncccn2)COc2ccccc2OC1 was tested. Which inhibition did it give?
The inhibition was inactive: 1.2%.

With O=P1(Nc2ccc(Br)cn2)COc2ccccc2OC1 as the compound, how does the inhibition read?
Its inhibition is inactive: -5%.

Cc1ccc(OCC(=O)OC2CN3CCC2CC3)cc1 (centres undefined) was tested. Which inhibition did it give?
The inhibition was inactive: 10.7%.

O=P1(Nc2ccccn2)COc2ccccc2OC1 was tested. Which inhibition did it give?
The inhibition was inactive: 9%.

Which inhibition does the source give for Clc1n[nH]nc1-c1nn[nH][15n]1 here?
The inhibition was inactive: 20.1%.

Which inhibition does the source give for CC(C)/C=N\N=C(\N)N[N+](=O)[O-] here?
The inhibition was inactive: 1.3%.

How did the inhibition turn out when CN(C(=O)Cc1ccc(Cl)c(Cl)c1)[C@@H]1CCCC[C@H]1N1CCCC1 was run?
The inhibition was inactive: 17.1%.

With COc1cc(C(=O)NCC2(N3CCOCC3)CCCCC2)cc(Cl)c1OC(C)C as the compound, how does the inhibition read?
Its inhibition is inactive: 10%.

For Cc1cccc(OCC(=O)OC2CN3CCC2CC3)c1 (centres undefined), which inhibition is on record?
The inhibition was inactive: 11.7%.

For Cc1ccc(NCCc2c([N+](=O)[O-])cc([N+](=O)[O-])cc2[N+](=O)[O-])cc1, which inhibition is on record?
Its inhibition is inactive: 37.5%.

With COc1cc(C2NCCC3(OCCO3)C2(C)C)cc(OC)c1OC (centres undefined) as the compound, how does the inhibition read?
Its inhibition is inactive: 21.1%.

With CCOP(=O)(Nc1cccc2ccccc12)OCC as the compound, how does the inhibition read?
The inhibition was inactive: 8.6%.

With CCOP1(=S)c2c(C)nn(CCC#N)c2N=C(c2ccccc2F)N1C (centres undefined) as the compound, how does the inhibition read?
Its inhibition is inactive: 6.9%.

O=P(Nc1nccs1)(c1ccccc1)c1nc2ccccc2s1 (centres undefined) was tested. Which inhibition did it give?
Its inhibition is inactive: 11.8%.

How did the inhibition turn out when O=P(Nc1nccs1)(Oc1ccccc1)Oc1ccccc1 was run?
The inhibition was inactive: 1.9%.

How did the inhibition turn out when O=[N+]([O-])c1ccc2c(c1)nnn2O was run?
The inhibition was inactive: 5.6%.

For CCOP1(=S)c2c(C)nn(CCC#N)c2N=C(c2ccc(F)cc2)N1C (centres undefined), which inhibition is on record?
Its inhibition is inactive: 6.2%.

How did the inhibition turn out when Cc1ccc2nc3c(c(C)c2c1)CC(C(Cl)Cl)S3 (centres undefined) was run?
The inhibition was inactive: 18.2%.

How did the inhibition turn out when ClCCSc1nnc(-c2cccnc2)o1 was run?
The inhibition was inactive: 10.9%.

With CCN(CC)C(=S)SC(NC=O)C(Cl)(Cl)Cl (centres undefined) as the compound, how does the inhibition read?
The inhibition was inactive: 2.7%.

For CC(C)NC(=O)NP(=O)(Oc1ccccc1)Oc1ccccc1, which inhibition is on record?
Its inhibition is inactive: 10.7%.

With O=[N+]([O-])c1cc([N+](=O)[O-])c(-c2ccn[nH]2)s1 as the compound, how does the inhibition read?
Its inhibition is inactive: 7.5%.

How did the inhibition turn out when O=C(OC1CN2CCC1CC2)C12CC3CC(CC(C3)C1)C2 (centres undefined) was run?
The inhibition was inactive: 0.9%.

Which inhibition does the source give for Cc1cc(=O)[nH]c(N[N+](=O)[O-])n1 here?
Its inhibition is inactive: -4.3%.

Cc1c2c(nc3ccccc13)SC(C(Cl)Cl)C2 (centres undefined) was tested. Which inhibition did it give?
Its inhibition is inactive: 19.5%.

Which inhibition does the source give for COc1ccc2nc(NP(=O)(c3ccccc3)c3ccccc3)sc2c1 here?
Its inhibition is inactive: 6.9%.

For COc1ccc(N/C(=N/P(=O)(N2CCOCC2)N2CCOCC2)N2CCOCC2)cc1, which inhibition is on record?
The inhibition was inactive: 2.3%.

For COP1(=S)c2c(C)nn(CCC#N)c2N=C(c2ccc(F)cc2)N1C (centres undefined), which inhibition is on record?
Its inhibition is inactive: -10.9%.

How did the inhibition turn out when O=C(COc1ccccc1)OC1CN2CCC1CC2 (centres undefined) was run?
Its inhibition is inactive: 6.1%.

Which inhibition does the source give for CCC(C)N(CC(C)C)C(=S)SC(NC(C)=O)C(Cl)(Cl)Cl (centres undefined) here?
The inhibition was inactive: -10.9%.

How did the inhibition turn out when Cc1cc(SC(NC(=O)c2ccccc2)C(Cl)(Cl)Cl)nc(C(C)C)n1 (centres undefined) was run?
Its inhibition is inactive: 7.5%.

With O=P(Nc1ccccn1)(c1cccc2ccccc12)c1cccc2ccccc12 as the compound, how does the inhibition read?
Its inhibition is inactive: 31%.

Which inhibition does the source give for Cc1cc(SC(NC=O)C(Cl)(Cl)Cl)ncn1 (centres undefined) here?
Its inhibition is inactive: 0%.

— PubChem BioAssay AID1217 (Sanford-Burnham Center for Chemical Genomics, 2008)
